Tested on: isolated brain mitochondria
Test: t-BuOOH-induced oxidative stress in brain mitochondria
Conditions: 75 µM alone, vs control untreated mitochondria

CC(C)(C)OO
increase in MDA production by toxic agent alone: 209% | reduction in GSH levels by toxic agent alone: 50%

Source: publication PMC12072147, “Antioxidant and Neuroprotective Properties of Selected Pyrrole-Containing Azomethine Compounds in Neurotoxicity Models In Vitro” (International Journal of Molecular Sciences, 2025)
